Measured values published in patent EP2377861B1, “Water-soluble bis-triazinyl-pyridines, bipyridines and terpyridines, synthesis and use of same” (Karlsruher Institut für Technologie, priority 2010, dated 2011).

Assay: Solubility in water
Assay type: physicochemical
Procedure: Graugrüner Feststoff, Ausbeute 1.25 g (78.5 %), Schmelzpunkt >350 °C. Löslichkeit in Wasser > 0.1 mol/L.
SO3-Ph-BTBP wurde aus 6,6'-Bis(5,6-diphenyl-1,2,4-triazin-3-yl)-2,2'-bipyridin analog zu SO3-Ph-BTP hergestellt. Löslichkeit in Wasser > 0.1 mol/L.

In the case of “2,6-Bis(5,6-di(sulfophenyl)-1,2,4-triazin-3-yl)pyridine [SO3-Ph-BTP]”, the “Löslichkeit in Wasser” value is reported as > 0.1 mol/L.
